In PubChem BioAssay AID1053197 (The Scripps Research Institute Molecular Screening Center, 2014) one finds inhibition data, which are given here for 111 compounds.

Chains of the proteins cited; added tags and fusions are not shown. Lines headed by an entry give the natural chain unless they say otherwise; changes in a name come on top.
UniProt Q9HAT2: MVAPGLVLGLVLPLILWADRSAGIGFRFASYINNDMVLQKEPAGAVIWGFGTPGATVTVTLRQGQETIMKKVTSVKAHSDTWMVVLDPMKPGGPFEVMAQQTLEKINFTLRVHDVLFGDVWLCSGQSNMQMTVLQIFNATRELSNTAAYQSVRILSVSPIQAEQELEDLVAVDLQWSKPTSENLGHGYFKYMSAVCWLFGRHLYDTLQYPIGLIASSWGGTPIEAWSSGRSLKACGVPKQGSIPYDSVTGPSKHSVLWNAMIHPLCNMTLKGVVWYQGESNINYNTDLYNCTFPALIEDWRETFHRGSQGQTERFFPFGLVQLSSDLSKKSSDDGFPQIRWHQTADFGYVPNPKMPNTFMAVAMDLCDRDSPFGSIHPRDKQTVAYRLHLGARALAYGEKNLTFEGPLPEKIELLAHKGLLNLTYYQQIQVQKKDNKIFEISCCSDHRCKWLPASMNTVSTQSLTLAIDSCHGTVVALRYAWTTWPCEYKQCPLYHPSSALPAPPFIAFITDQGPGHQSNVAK

The entries are a selection whose mix differs from that of the whole data set. Activity calls are given as the source filed them.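 The calls were made as follows: active = inhibition above a cutoff: mean of compounds within the control limits plus 3 SD of those (cut at about 17% in these data); inactive = the rest.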

For this assay, the target named is Sialate O-acetylesterase (Homo sapiens) (UniProt Q9HAT2). In words: human SIAE inhibitors, primary screen, biochemical, fluorescence polarization, FP-Rh probe, 1536-well HTS (AID 1053197).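 Also: 0% = plate median of compound wells and 100% = probe without SIAE protein.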 The settings on record: SIAE FP-Rh probe binding, at 9.66 µM, stronger effect = higher value.
Broadly, the inhibition is the change of the read-out against control, counted positive when it falls. Turning to `CCOC(=O)c1ccc(NC(=O)C(C)(CCl)SC)cc1` (stereo unspecified), the inhibition is inactive: 6.88%.

Turning to `O=C(OC1CN2CCC1CC2)c1cccc([N+](=O)[O-])c1` (stereo unspecified), the inhibition was inactive: -5.94%.

Regarding `COc1cc(I)ccc1[As](=O)(O)O`, the inhibition was inactive: -1.72%.

As for `COc1ccc2nc(NP(=O)(c3ccccc3)c3ccccc3)sc2c1`, the inhibition was inactive: 7.88%.

In the case of `O=P1(N(CCCl)CCCl)Nc2ccccc2N1`, the inhibition is inactive: 6.76%.

Regarding `O=P1(N(CCCl)CCCl)OCCCN1CCCl` (stereo unspecified), the inhibition is inactive: 1.77%.

As to `Cc1cc(=O)[nH]c(N[N+](=O)[O-])n1`, the inhibition is inactive: 0.04%.

Take `O=C(OC1CN2CCC1CC2)C12CC3CC(CC(C3)C1)C2` (stereo unspecified): the inhibition was inactive: -1.52%.

In the case of `Cc1c2c(nc3ccccc13)SC(C(Cl)Cl)C2` (stereo unspecified), the inhibition was inactive: 1.54%.

`COc1ccc(N/C(=N/P(=O)(N2CCOCC2)N2CCOCC2)N2CCOCC2)cc1`: the inhibition is inactive: 5.47%.

In the case of `O=[N+]([O-])c1cc(Oc2ccc([N+](=O)[O-])cc2C(F)(F)F)cc([N+](=O)[O-])c1`, the inhibition was inactive: -1.01%.

Turning to `Cc1ccc2nc3c(c(C)c2c1)CC(C(Cl)Cl)S3` (stereo unspecified), the inhibition was inactive: -5.96%.

`Cc1ccc(OP(=O)(Nc2ccc([N+](=O)[O-])cn2)Oc2ccc(C)cc2)cc1`: the inhibition was inactive: 0.43%.

On to `[N-]=[N+]=NC1CCCCC1NC(=O)c1cc([N+](=O)[O-])cc([N+](=O)[O-])c1` (stereo unspecified), for which the inhibition was inactive: 0.35%.

In the case of `O=[N+]([O-])c1ccc(-c2cc([N+](=O)[O-])c(O)c([N+](=O)[O-])c2)cc1`, the inhibition was inactive: -2.88%.

As for `COc1cc(C(=O)NCC2(N3CCOCC3)CCCCC2)ccc1OCC(C)C`, the inhibition is inactive: -3.7%.

For the compound `C[As](=O)(O)c1cccc(C(=O)O)c1`, the inhibition is inactive: 0%.

As for `O=[As](O)(c1ccc(O)cc1)c1ccccc1O`, the inhibition is inactive: 0.42%.

As for `CC(C)NC(=O)NP(=O)(Oc1ccccc1)Oc1ccccc1`, the inhibition is inactive: 4.44%.

Regarding `CCN(CC)C(=S)SC(NC=O)C(Cl)(Cl)Cl` (stereo unspecified), the inhibition was inactive: -0.4%.

As to `O=C(OC1CN2CCC1CC2)c1cccc2[nH]cnc12` (stereo unspecified), the inhibition was inactive: -9.53%.

As for `COC(=O)C1(C)COP(=O)(N2CCCCCC2)OC1` (stereo unspecified), the inhibition was inactive: -2.58%.

For `CC(C)c1ccc(OP(=O)(Nc2ccccn2)Oc2ccccc2F)cc1` (stereo unspecified), the inhibition was inactive: -6.31%.

With `ClCCSc1nnc(-c2cccnc2)o1`, the inhibition was inactive: -2.13%.

With `CN(C(=O)Cc1ccc(Cl)c(Cl)c1)[C@H]1CCCC[C@@H]1N1CCCC1`, the inhibition was inactive: -7.33%.

For `Cc1ccc(NP(=O)(Oc2ccccc2F)Oc2ccccc2F)nc1`, the inhibition was inactive: 2.25%.

On to `Cc1cc(SC(NC(=O)c2ccc(F)cc2)C(Cl)(Cl)Cl)ncn1` (stereo unspecified), for which the inhibition was inactive: 5.45%.

`CCOP(=O)(Nc1ccccc1)OCC`: the inhibition is inactive: 1.25%.

As for `CCn1c(=O)n(C2CCN(CC3CCCCCCC3)C[C@H]2CO)c2ccccc21` (stereo partly specified), the inhibition was inactive: -2.4%.

As to `CCCC1OP(N)(=O)OCC1CC` (stereo unspecified), the inhibition was inactive: 1.34%.

For the compound `CC(=O)Nc1ccc([As](=O)(O)O)cc1`, the inhibition was inactive: -3.9%.

Turning to `O=C(O)c1ccccc1[As](=O)(O)O`, the inhibition is inactive: -2.49%.

Turning to `O=P(Nc1nc2ccc(Cl)cc2s1)(c1ccccc1)c1ccccc1`, the inhibition was inactive: -4.03%.

As for `CN(C)P(=O)(N(C)C)n1c(Nc2ccccc2)nnc1-c1ccccc1`, the inhibition was inactive: 0.32%.

Consider `CCN(N=Nc1nonc1N)c1nonc1N`, for which the inhibition is inactive: -0.53%.

Turning to `CN(C(=O)Cc1ccccc1)C1CC[C@@]2(CCCO2)C[C@@H]1N1CCCC1` (stereo partly specified), the inhibition was inactive: 1.61%.

Consider `Nc1cccc2ccc([As](=O)(O)O)cc12`, for which the inhibition is active: 19.3%.

Consider `Cc1ccc(OP(=O)(Nc2nccs2)Oc2ccc(C)cc2)cc1`, for which the inhibition was inactive: -1.24%.

As for `COc1ccccc1OP(=O)(Nc1ccc(C)cn1)Oc1ccccc1OC`, the inhibition is inactive: 1.26%.

With `CN1CCCC(OC(=O)C(c2ccccc2)c2ccccc2)C1` (stereo unspecified), the inhibition is inactive: -0.17%.

In the case of `Clc1ccc(Cl)c(NC2=NCC(CBr)S2)c1` (stereo unspecified), the inhibition was inactive: 0.92%.

Regarding `NC(=O)c1cc([N+](=O)[O-])cc([N+](=O)[O-])c1N`, the inhibition was inactive: 0.44%.

As for `Cc1ccc(N/C(=N/P(=O)(N2CCOCC2)N2CCOCC2)N2CCOCC2)cc1`, the inhibition was inactive: 3.3%.

On to `CN(C(=O)Cc1ccc(Cl)c(Cl)c1)[C@H]1CCCC[C@H]1N1CCCC1`, for which the inhibition was inactive: -2.78%.

Regarding `Nc1cc(N)c2nonc2c1[N+](=O)[O-]`, the inhibition is inactive: -3.57%.

As to `CC(C)CC(=O)NC(Sc1ccc(Cl)cc1)C(Cl)(Cl)Cl` (stereo unspecified), the inhibition was inactive: -1.1%.

With `O=C(NC(Sc1ccncn1)C(Cl)(Cl)Cl)c1ccccc1` (stereo unspecified), the inhibition is inactive: 5.29%.

For the compound `Oc1ccccc1CNc1ccccn1`, the inhibition is inactive: 0.89%.

Turning to `CC(=O)N1C2C3N(C(C)=O)C1C1N(C(C)=O)C(C(N1C(C)=O)N3C(C)=O)N2C(C)=O`, the inhibition was inactive: 2.4%.

As to `O=[N+]([O-])c1cccc2n[nH]nc12`, the inhibition is inactive: 2.01%.

Turning to `O=[N+]([O-])c1cc([N+](=O)[O-])c(CCNc2ccccc2)c([N+](=O)[O-])c1`, the inhibition is active: 39.6%.

As to `CCc1nc2c(n1)c1c(non1O)c1c2no[n+]1[O-]`, the inhibition is inactive: -1.24%.

Consider `Cc1ccc(NP(=O)(Oc2ccccc2)Oc2ccccc2)nc1`, for which the inhibition is inactive: -7.11%.

Regarding `COc1ccc(C2=NCC(CBr)S2)cc1` (stereo unspecified), the inhibition is inactive: 1.71%.

Consider `CN(C)C(=O)OCCc1n(C)cc[n+]1C`, for which the inhibition is inactive: -8.53%.

Turning to `CC(C)c1nc(Nc2ccccc2)n(P(=O)(N(C)C)N(C)C)n1`, the inhibition was inactive: -1.52%.

Consider `CC(C)=N/N=C(\N)N[N+](=O)[O-]`, for which the inhibition was inactive: 4.88%.

For `CC1CCN(C(=O)Oc2c(Cl)cc(Cl)c3cccnc23)CC1`, the inhibition was inactive: -0.39%.

On to `c1cc(-c2nn[nH]n2)ccc1-c1nn[nH]n1`, for which the inhibition is inactive: -3.84%.

With `C[N+]1=C2C=CC=CC=C2SC12C([N+](=O)[O-])=CC([N+](=O)[O-])=C[C-]2[N+](=O)[O-]` (stereo unspecified), the inhibition is active: 20.9%.

Regarding `Nc1ccc([As](=O)(O)c2ccc(N)cc2)cc1`, the inhibition was inactive: 9.91%.

For `CCN(/C(=N/P(=O)(N1CCOCC1)N1CCOCC1)N1CCOCC1)c1ccc(OC)cc1`, the inhibition is inactive: 1.99%.

As for `O=C(Nc1cc([As](=O)(O)O)ccc1O)c1ccccc1`, the inhibition was inactive: 5.55%.

In the case of `O=P1(N(CCCl)CCCl)OCCCS1` (stereo unspecified), the inhibition was inactive: 0.98%.

Consider `COC(=O)C1(C)COP(=O)(Nc2ccccc2)OC1` (stereo unspecified), for which the inhibition was inactive: -1.67%.

In the case of `O=[N+]([O-])c1cccc(NC2=NCC(CBr)S2)c1` (stereo unspecified), the inhibition was inactive: -13.1%.

For `O=C(O)CNc1ccc([As](=O)(O)O)cc1`, the inhibition was inactive: -4.78%.

On to `CC(C)(C)C(=O)NC(Sc1ccncn1)C(Cl)(Cl)Cl` (stereo unspecified), for which the inhibition was inactive: 5.32%.

Take `O=[N+]([O-])c1ncn(CCn2ncnc2[N+](=O)[O-])n1`: the inhibition is inactive: -2.58%.

As to `C[C@H]1OP(=O)(Oc2ccccc2)[C@H](O)[C@H](O)[C@H]1N=[N+]=[N-]` (stereo partly specified), the inhibition is inactive: 1.41%.

For `O=P(Nc1nc2ccccc2s1)(c1ccccc1)c1ccccc1`, the inhibition is inactive: -6.51%.

Take `COc1ccc(N)c([N+](=O)[O-])c1[N+](=O)[O-]`: the inhibition is inactive: -0.01%.

With `Nc1ccc(CCCCOc2ccccc2)cc1`, the inhibition was inactive: 2.82%.

For `CN(C)C1(CNC(=O)c2ccc(Cl)c(S(N)(=O)=O)c2)CCCCC1`, the inhibition was inactive: 4.34%.

As for `O=P(Nc1ccccn1)(c1ccc(Br)cc1)c1ccc(Br)cc1`, the inhibition is inactive: 9.47%.

Turning to `C(Cc1nn[nH]n1)Cc1nn[nH]n1`, the inhibition was inactive: -8.2%.

As to `Nc1ccc([As](=O)(O)c2ccc([N+](=O)[O-])cc2)cc1`, the inhibition was inactive: 1.41%.

Regarding `C/C(N)=N\P(=O)(OCc1ccccc1)OCc1ccccc1`, the inhibition is inactive: -2.44%.

Turning to `O=C(OC1CN2CCC1CC2)c1cccc(Cl)c1` (stereo unspecified), the inhibition was inactive: 0.44%.

For `CC(=O)NC(SC(=S)N(C)C)C(Cl)(Cl)Cl` (stereo unspecified), the inhibition was inactive: -4.53%.

As for `O=[N+]([O-])c1ncn(CCn2cnc([N+](=O)[O-])n2)n1`, the inhibition was inactive: 2.48%.

With `O=[As](O)(c1ccccc1)c1ccc(O)cc1`, the inhibition is inactive: 0.93%.

Take `c1nnnn1CCn1cnnn1`: the inhibition is inactive: 0.71%.

As to `O=P(Nc1nccs1)(c1ccccc1)c1ccccc1`, the inhibition was inactive: 3.37%.

Consider `CC(C)C(=O)NC(Sc1ccccc1)C(Cl)(Cl)Cl` (stereo unspecified), for which the inhibition was inactive: 3.32%.

As to `CCc1cc(O)c([N+](=O)[O-])c(C)c1[N+](=O)[O-]`, the inhibition was inactive: -3.75%.

For `CC(C)(C)C(=O)NC(Sc1ccccc1)C(Cl)(Cl)Cl` (stereo unspecified), the inhibition was inactive: 0.52%.

Regarding `CCOc1ccc(C2=NCC(CBr)S2)cc1` (stereo unspecified), the inhibition is inactive: -0.71%.

For the compound `O=P1(Nc2nc3ccc(Cl)cc3s2)COc2ccccc2O1` (stereo unspecified), the inhibition was inactive: 2.31%.

For `CC(=O)Nc1ccc(Oc2c([N+](=O)[O-])cc([N+](=O)[O-])cc2[N+](=O)[O-])cc1`, the inhibition is inactive: 1.63%.

For `CC(=O)Nc1ccc([As](=O)(O)O)c(O)c1`, the inhibition is inactive: -2.04%.

For the compound `COC(=O)C1(C)COP(=O)(NCc2ccccc2)OC1` (stereo unspecified), the inhibition was inactive: 4%.

For the compound `CC(=O)c1ccc(N2CC2c2ccncc2)cc1` (stereo unspecified), the inhibition is inactive: 2.16%.

On to `N#C/C(=C\c1ccc(N(CCBr)CCBr)cc1)C(N)=O`, for which the inhibition was inactive: 8.73%.

Turning to `C[C@H]1OP(=O)(Oc2ccccc2)C[C@@H]2O[C@@H]21` (stereo partly specified), the inhibition was inactive: -5.79%.

For `C[C@@H]1C=CCP(=O)(Oc2ccccc2)O1` (stereo partly specified), the inhibition was inactive: -4.57%.

`Cc1ccccc1CN(C)C(=O)COC(=O)C(O)(c1ccccc1)c1ccccc1`: the inhibition was inactive: 2%.

Turning to `O=P1(N(CCCl)CCCl)OCCC2CCCCN21` (stereo unspecified), the inhibition is inactive: 0.93%.

On to `O=C(NC1CCS(=O)(=O)C1)NP(=S)(Oc1ccccc1)Oc1ccccc1` (stereo unspecified), for which the inhibition is inactive: -5.42%.

Turning to `CCNC(=S)/N=C(\N)N[N+](=O)[O-]`, the inhibition was inactive: 3.78%.

For the compound `Cc1ccc(NP(=O)(Oc2cccc(C)c2)Oc2cccc(C)c2)nc1`, the inhibition is inactive: 4.53%.

Turning to `c1ccc(-c2nn[nH]n2)c(-c2nn[nH]n2)c1`, the inhibition is inactive: -6.66%.

Take `O=c1c2cc([N+](=O)[O-])ccc2[nH]c2c([N+](=O)[O-])cc([N+](=O)[O-])cc12`: the inhibition is inactive: -16.2%.

With `CN(C)C(=O)Oc1noc2ccccc12`, the inhibition is inactive: -2.79%.

For `CC(NC(=O)COC(=O)C(O)(c1ccccc1)c1ccccc1)c1ccccc1` (stereo unspecified), the inhibition was inactive: -3.01%.

As for `Cc1ccccc1OP(=O)(Nc1ccccn1)Oc1ccccc1C`, the inhibition was inactive: -1.84%.

Turning to `CC(=O)NC(SC(=S)N(CC(C)C)CC(C)C)C(Cl)(Cl)Cl` (stereo unspecified), the inhibition was inactive: 9.28%.

Take `Cc1ccc(OP(=O)(Nc2ccccn2)Oc2ccc(C)cc2)cc1`: the inhibition was inactive: -3.78%.

Regarding `COC(=O)c1cc2c(s1)N=C(c1ccccc1)N(C)P2(=O)N1CCOCC1` (stereo unspecified), the inhibition was inactive: -8%.

Consider `CCC(=O)N1C2C3N(C(=O)CC)C1C1N(C(=O)CC)C(C(N1C(=O)CC)N3C(=O)CC)N2C(=O)CC`, for which the inhibition was inactive: -0.49%.

Consider `O=C(OC1CN2CCC1CC2)c1ccccc1` (stereo unspecified), for which the inhibition is inactive: 2.38%.
